Tests used:
14-3-3 isoforms = experiment: Binding to 14-3-3 isoforms using LC-MS qTOF; settings: 1:5 protein:peptide, overnight, intact protein LC/MS
Procedure: The complexes were buffer-exchanged into milliQ + 0.1% formic acid after overnight incubation at 4 °C.
UPLC-QToF-MS analysis was performed on a Waters (Milford, MA, USA) Acquity I-Class UPLC system coupled to a Waters Xevo G2 quadrupole time-of-flight (QToF) mass spectrometer. The devices were controlled by MassLynx Software (version 4.1, Waters, MA, USA). Full scan in positive electrospray ionization (ESI+) mode was used as MS acquisition mode with an acquisition range from 200–2000 m/z. […] The samples concentration were 0.01–0.1 mg/mL, and the injection volume was 1 µL. Deconvolution was performed by the MaxEnt1 option of the MassLynx software. Errors were calculated using the MaxEnt Errors option.
Supplementary Figure 6: Isoform selectivity of 14-3-3 covalent binding peptides
Binding of electrophilic peptides to 14-3-3 isoforms. Peptides were incubated with the various indicated
isoforms overnight at room temperature, diluted and analyzed using intact protein LC/MS.

14-3-3σ = experiment: LC/MS/MS (parallel reaction monitoring) characterization of labeling sites in 14-3-3σ; format: binding, human
Procedure: This was followed by addition of iodoacetamide to 10 mM and incubation of 40 min at room temperature in the dark. The samples were then processed using S-trap (Protify) according to the manufacturer's instructions, followed by desalting using Oasis plate (Waters). […] The mobile phase was: […] Ionization was achieved using a 1900 V spray voltage with an ion transfer tube temperature of 275 °C. Initially, data were acquired in data-dependent acquisition (DDA) mode. MS1 resolution was set to 120,000 (at 200 m/z), a mass range of 375-1650 m/z, normalized AGC of 300%, and the maximum injection time was set to 20 ms. […] The DDA data was analyzed using MaxQuant 1.6.3.4[110]. The database contained the sequence of the 14-3-3σ construct used in the study, and contaminants were included. Methionine oxidation and N terminal acetylation were variable modifications, and carbamidomethyl was a fixed modification in the analysis, with up to 4 modifications per peptide. Digestion was defined as trypsin/P with up to 2 missed cleavages. PSM FDR was defined as 1 and Protein FDR/Site Decoy fraction were defined as 0.01. Second Peptides were enabled and Match between runs was enabled with a Match time window of 0.7 min. The data was imported into skyline (version 22.2.0.351) and precursors from 9 peptides containing or following the residues […], […] and […] were selected for parallel reaction monitoring (PRM). In every acquisition cycle, one full MS spectrum was taken at a range of 350-1000 Da, 300% AGC target, maximum injection time 20 ms at a resolution of 120,000. Data for each precursor was measured during a 4-5 min window around the retention time measured in the DDA run, with Q1 resolution of 2 Da, orbitrap resolution of 15,000, 300% AGC target and maximum injection time of 160 ms. The acquired data was then analyzed in skyline using a spectral library generated from the DDA runs. The 3 most intense product ions were used for quantitation relative to the DMSO control. data have been deposited to the ProteomeXchange Consortium via the PRIDE[111] partner repository with the dataset identifier PXD044257 and 10.6019/PXD044257. […] Supplementary Figure 4. Methacrylate peptides label different 14-3-3σ residues. a) Following incubation with the peptides, samples of 14-3-3σ were trypsinized and tryptic peptides containing or following potential target residues were quantified using parallel reaction monitoring. 95% confidence intervals for the integrated signal for the peptides were calculated from n = 3 runs. The ratio to DMSO was calculated and the confidence interval for the ratio was calculated by standard error […] temperature and the products were characterized using LC/MS. c) 14-3-3σ was incubated with peptide 8 until fully labeled, followed by incubation with TCEP or DTT for 130 minutes at room temperature and analysis by LC/MS. d) 14-3-3σ was incubated with BODIPY-modified peptides until fully labeled. The samples were then denatured using Lithium Dodecyl Sulfate buffer in different conditions (with or without heating and with or without DTT) and analyzed by SDS-PAGE.

A549 lysates = experiment: Pull-down proteomics with biotinylated peptides in A549 lysates; format: binding, human; settings: biotinylated derivatives of the peptides, 1 µM, 22 h, 25 °C, streptavidin enrichment, LC-MS/MS
Procedure: We synthesized and purified N terminally biotinylated derivatives of peptides 3 and 8. A549 cells were harvested and lysed as described before. The lysates were diluted to 1.9 mg/ml in lysis buffer, and the peptides were diluted to 20 µM in 20% DMSO/lysis buffer. 142.5 µl of lysate were mixed with 7.5 µl of 20 µM peptide stock and the samples were incubated at 25 °C for 22 h. The proteins were precipitated by addition of 450 µl water, 600 µl HPLC grade methanol and 150 µl HPLC grade chloroform, followed by vortexing and centrifugation for 10 min at 21,000 × g at 4 °C. The top layer was aspirated, and 600 µl methanol was added and the sample was vortexed and centrifuged again, followed by aspiration of the supernatant. The pellet was air-dried and kept at −80 °C. The pellet was dissolved in 200 µl of 2.5% SDS in PBS with heating to 60 °C and shaking at 1150 rpm for 30 min. […]
The beads were centrifuged and the supernatant was mixed 1:1 with 0.2% TFA in water. […] Samples were analyzed using EASY-nLC 1200 nano-flow UPLC system, using PepMap RSLC C18 column (2 μm particle size, 100 Å pore size, 75 μm diameter × 50 cm length), mounted using an EASY-Spray source onto an Exploris 240 mass spectrometer. uLC/MS-grade solvents were used for all chromatographic steps at 300 nL/min. […] Four samples were analyzed per condition. […]

[1] = Differential scanning fluorimetry of Im proteins and Im-E9 complexes; settings: DSF, SYPRO Orange, 40 µM protein; for Tm average: average of 3 technical replicates

Ac-RAH-(pT)-(mC)-PASLQ-NH2 [Peptide 8, Methacrylate phosphopeptide derived from YAP-1 (PDB 3MHR)]
labeling of 14-3-3 isoforms (14-3-3 isoforms): labeled all isoforms with similar efficiencies
binding site on 14-3-3σ (14-3-3σ; 5 µM peptide, 2 µM 14-3-3σ, 48 h room temperature, trypsin digestion, LC/MS/MS relative to DMSO control): Lys122 as the likely binding site
Fold Change Result, 14-3-3σ tryptic peptide GAVEKGEELSCEER (14-3-3σ; LC/MS/MS PRM, abundance of unmodified tryptic peptide GAVEKGEELSCEER, Pep8-treated vs DMSO, adjusted P-value 0.0029, CI 1.19-1.88): 1.5
Fold Change Result, 14-3-3σ tryptic peptide GDYYRYLAEVATGDDK (14-3-3σ; LC/MS/MS PRM, tryptic peptide GDYYRYLAEVATGDDK, Pep8-treated vs DMSO, adjusted P-value 0, CI 0.08-0.11): 0.1
Fold Change Result, 14-3-3σ tryptic peptide GEELSCEER (14-3-3σ; LC/MS/MS PRM, tryptic peptide GEELSCEER, Pep8-treated vs DMSO, adjusted P-value 0.8934, CI 0.72-1.42): 1.01
Fold Change Result, 14-3-3σ tryptic peptide MKGDYYR (14-3-3σ; LC/MS/MS PRM, tryptic peptide MKGDYYR, Pep8-treated vs DMSO, adjusted P-value 0.0163, CI 0.25-1.05): 0.51
Fold Change Result, 14-3-3σ tryptic peptide MKGDYYRYLAEVATGDDK (14-3-3σ; LC/MS/MS PRM, tryptic peptide MKGDYYRYLAEVATGDDK, Pep8-treated vs DMSO, adjusted P-value 0.0003, CI 0.07-0.22): 0.13
Fold Change Result, 14-3-3σ tryptic peptide NLLSVAYK (14-3-3σ; LC/MS/MS PRM, tryptic peptide NLLSVAYK, Pep8-treated vs DMSO, adjusted P-value 0.0652, CI 0.93-1.32): 1.11
Fold Change Result, 14-3-3σ tryptic peptide NLLSVAYKNVVGGQR (14-3-3σ; LC/MS/MS PRM, tryptic peptide NLLSVAYKNVVGGQR, Pep8-treated vs DMSO, adjusted P-value 0.0062, CI 1.03-1.29): 1.15
Fold Change Result, 14-3-3σ tryptic peptide VFYLKMK (14-3-3σ; LC/MS/MS PRM, tryptic peptide VFYLKMK, Pep8-treated vs DMSO, adjusted P-value 0.003, CI 0.17-0.65): 0.33
Fold Change Result, 14-3-3σ tryptic peptide VFYLKMKGDYYR (14-3-3σ; LC/MS/MS PRM, tryptic peptide VFYLKMKGDYYR, Pep8-treated vs DMSO, adjusted P-value 0.0029, CI 0.53-0.84): 0.67
selectivity in pull-down proteomics (A549 lysates): selective, pan-14-3-3 reactive probes

Ac-RAH-(pT)-SPASL-X-NH2 [Peptide 12, reference compound]
labeling of 14-3-3 isoforms (14-3-3 isoforms): labeled only the sigma isoform

Im9: Colicin E9 immunity protein (Im9) in its free, unmodified form
Tm average [1]: 50.3484 celsius
Tm ([1]; technical replicate 1): 50.4442 celsius
Tm ([1]; technical replicate 2): 50.4446 celsius
Tm ([1]; technical replicate 3): 50.1565 celsius

Im+E9: Non-covalent complex of Im9 and E9
Tm average [1]: 48.5398 celsius
Tm ([1]; technical replicate 1): 48.3238 celsius
Tm ([1]; technical replicate 2): 48.647 celsius
Tm ([1]; technical replicate 3): 48.6486 celsius

— paper PMC10692228, “A simple method for developing lysine targeted covalent protein reagents” (Nature Communications, 2023)
